# Source: patent US20160129030A1, “TREATMENT OF MTOR HYPERACTIVE RELATED DISEASES AND DISORDERS” (priority 2013, published 2016)
# System: 621-101 cells
# Conditions: cells lacking TSC2; in the absence of rapamycin
# Procedure: Candidate compounds were screened for cytotoxic or anti-proliferative activity in cells lacking TSC2.
# The screen is being performed in 621-101 cells (which are derived from an angiomyolipoma (AML) of a patient with LAM and have a bi-allelic TSC2 inactivating mutation). The 621-101 cells are plated at 1250 cells/well in 384-well plates and grown overnight. Compound libraries are then added at the ICCB and allowed to incubate for 48-72 h. […] Treatment with staurosporine (1-2 uM) represents a positive control for cell death.
# The inventors screened the Known Bioactives Collection at the ICCB which consists of approximately 7,000 compounds.
compound,measurement,value
CN1CCCC1c1cccnc1.O=C(O)C(O)C(O)C(=O)O.O=C(O)C(O)C(O)C(=O)O (stereo not shown) [nicotine ditartrate],cytotoxic or antiproliferative activity,cytotoxic or antiproliferative activity in the absence of rapamycin
